Test results published in ChEMBL document CHEMBL1152936, “Human sialidase inhibitors: design, synthesis, and biological evaluation of 4-acetamido-5-acylamido-2-fluoro benzoic acids” (Bioorg Med Chem, 2009).
pIC50: −log10 of the molar value.

Biological target: T1, Sialidase-4 (Homo sapiens, UniProt Q8WWR8)
T1 sequence (Q8WWR8 whole entry): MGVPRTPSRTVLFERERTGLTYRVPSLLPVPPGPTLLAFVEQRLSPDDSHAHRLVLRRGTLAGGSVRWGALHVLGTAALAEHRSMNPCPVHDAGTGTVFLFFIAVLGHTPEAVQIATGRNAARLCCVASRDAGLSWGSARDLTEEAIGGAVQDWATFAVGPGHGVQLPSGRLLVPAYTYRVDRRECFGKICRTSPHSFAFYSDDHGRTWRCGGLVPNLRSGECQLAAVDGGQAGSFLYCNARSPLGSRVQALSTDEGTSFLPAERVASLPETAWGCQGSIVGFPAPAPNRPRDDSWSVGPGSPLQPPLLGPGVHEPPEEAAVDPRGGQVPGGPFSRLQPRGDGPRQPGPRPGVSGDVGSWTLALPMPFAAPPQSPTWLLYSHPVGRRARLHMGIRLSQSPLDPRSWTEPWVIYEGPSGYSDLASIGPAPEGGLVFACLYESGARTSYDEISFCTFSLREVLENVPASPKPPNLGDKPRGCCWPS
Assay: Inhibition of human NEU4 transiently transfected in HEK293T cells by fluorimetric analysis
Assay type: cell-based, HEK-293T

pIC50: 4.15
SMILES: CC(=O)N[C@H]1[C@H]([C@H](O)[C@H](O)CO)OC(C(=O)O)=C[C@@H]1O [NEU5AC2EN]
